One substance from article PMC10592010 can be followed below.

By UniProt entry, the sequences of proteins in these tests, tags left out. Where a name states a change or a piece, a line headed by the entry shows the natural chain unless it says otherwise.
UniProt P10275: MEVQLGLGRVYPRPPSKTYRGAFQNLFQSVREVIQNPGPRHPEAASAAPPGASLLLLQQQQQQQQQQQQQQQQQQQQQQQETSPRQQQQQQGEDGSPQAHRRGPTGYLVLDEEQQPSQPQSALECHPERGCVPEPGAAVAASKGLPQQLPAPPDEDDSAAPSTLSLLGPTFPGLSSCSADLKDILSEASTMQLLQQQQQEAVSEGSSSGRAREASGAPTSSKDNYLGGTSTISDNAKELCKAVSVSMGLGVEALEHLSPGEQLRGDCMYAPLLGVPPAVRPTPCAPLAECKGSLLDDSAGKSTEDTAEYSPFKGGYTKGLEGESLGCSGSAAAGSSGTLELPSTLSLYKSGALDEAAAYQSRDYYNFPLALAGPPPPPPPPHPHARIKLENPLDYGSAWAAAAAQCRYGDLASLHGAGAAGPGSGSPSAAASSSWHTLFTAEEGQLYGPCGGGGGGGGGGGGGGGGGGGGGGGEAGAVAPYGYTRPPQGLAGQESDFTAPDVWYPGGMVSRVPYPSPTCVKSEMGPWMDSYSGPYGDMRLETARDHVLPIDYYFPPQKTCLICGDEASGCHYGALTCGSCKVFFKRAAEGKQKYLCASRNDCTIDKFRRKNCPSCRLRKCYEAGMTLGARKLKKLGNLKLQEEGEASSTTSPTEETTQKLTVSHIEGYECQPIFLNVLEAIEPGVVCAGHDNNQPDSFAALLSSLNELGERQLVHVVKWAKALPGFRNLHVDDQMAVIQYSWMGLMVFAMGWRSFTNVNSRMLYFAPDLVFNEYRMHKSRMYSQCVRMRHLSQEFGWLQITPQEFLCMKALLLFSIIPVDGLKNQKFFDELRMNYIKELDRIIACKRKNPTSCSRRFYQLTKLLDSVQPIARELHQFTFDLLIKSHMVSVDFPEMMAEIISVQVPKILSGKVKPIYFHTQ

The assay deals with EGFP-tagged full-length AR wildtype (GFP-ARwt) (human) (UniProt P10275). In words: live-cell single-particle tracking.

As to “Halo-tagged AR NTD wildtype with NLS (Halo-ARNTDwt-NLS) (from UniProt P10275-1 1-538) (domain or fragment)”, the residence time (RT) stood at 6.4 s.
